In general, EC50 refers to the concentration at which the effect is half-maximal.

Chains of the proteins cited; added tags and fusions are not shown. Residues count along the entry.
UniProt P43220, 24-463: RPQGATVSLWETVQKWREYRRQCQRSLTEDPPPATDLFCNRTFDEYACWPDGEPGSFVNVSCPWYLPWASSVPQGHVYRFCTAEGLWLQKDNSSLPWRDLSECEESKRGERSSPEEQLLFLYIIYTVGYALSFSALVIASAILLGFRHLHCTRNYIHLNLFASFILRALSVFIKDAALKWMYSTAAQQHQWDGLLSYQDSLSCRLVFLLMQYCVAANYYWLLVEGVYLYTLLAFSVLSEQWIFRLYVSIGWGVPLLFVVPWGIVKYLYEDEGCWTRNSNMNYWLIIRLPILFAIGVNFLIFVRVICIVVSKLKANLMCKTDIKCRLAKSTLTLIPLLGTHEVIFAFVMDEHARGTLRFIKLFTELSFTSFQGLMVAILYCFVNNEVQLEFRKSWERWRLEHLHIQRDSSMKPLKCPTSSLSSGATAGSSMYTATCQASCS
UniProt P47871, 26-477: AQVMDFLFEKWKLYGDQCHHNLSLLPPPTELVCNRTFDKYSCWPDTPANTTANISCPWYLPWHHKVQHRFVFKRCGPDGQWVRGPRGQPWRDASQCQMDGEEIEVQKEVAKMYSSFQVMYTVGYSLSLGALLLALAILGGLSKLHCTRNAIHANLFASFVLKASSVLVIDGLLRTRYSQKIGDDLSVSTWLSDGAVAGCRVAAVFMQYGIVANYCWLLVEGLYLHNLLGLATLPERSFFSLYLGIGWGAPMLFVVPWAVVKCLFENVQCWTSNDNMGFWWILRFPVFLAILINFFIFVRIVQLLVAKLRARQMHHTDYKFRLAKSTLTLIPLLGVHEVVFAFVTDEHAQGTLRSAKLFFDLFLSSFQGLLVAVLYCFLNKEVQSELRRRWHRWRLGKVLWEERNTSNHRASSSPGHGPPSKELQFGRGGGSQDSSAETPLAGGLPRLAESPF

Data on 6 molecules can be found in patent US20140100156A1 (SANOFI, priority 2012, published 2014).

One assay has as its target T1, human GLP-1 receptor (Homo sapiens, UniProt P43220).
T1 construct: expressed in transfected cells; host or cells: HEK-293
Kind of assay: cAMP response (HTRF) of HEK-293 cells stably expressing human GLP-1 receptor. Type of assay: cell-based.

Another assay addresses T2, human glucagon receptor (Homo sapiens, UniProt P47871).
T2 construct: expressed in transfected cells; host or cells: HEK-293
Kind of assay: cAMP response (HTRF) of HEK-293 cells stably expressing human glucagon receptor. It is filed as cell-based. On the technique in general: Time-resolved FRET reads energy transfer from a long-lived donor to a nearby acceptor.

Where [1] appears, read: Table 5, cAMP, HEK-293, read-out: EC50 hGLP-1R.
The mark [2] stands for this setting: Table 5, cAMP, HEK-293, read-out: EC50 hGlucagon-R.

Read-outs that look alike come from different tables or passages of the source.

For the molecule `CC[C@H](C)[C@H](NC(=O)[C@H](Cc1ccccc1)NC(=O)[C@H](CC(=O)O)NC(=O)[C@H](CCC(N)=O)NC(=O)[C@H](C)NC(=O)[C@H](CCCNC(=N)N)NC(=O)[C@H](CCCNC(=N)N)NC(=O)[C@H](CO)NC(=O)[C@H](CC(=O)O)NC(=O)[C@H](CCSC)NC(=O)[C@H](CCC(N)=O)NC(=O)[C@H](CCCCN)NC(=O)[C@H](CO)NC(=O)[C@H](CC(C)C)NC(=O)[C@H](CC(=O)O)NC(=O)[C@H](CO)NC(=O)[C@@H](NC(=O)[C@H](Cc1ccccc1)NC(=O)[C@@H](NC(=O)CNC(=O)[C@H](CCC(N)=O)NC(=O)[C@@H](CO)NC(=O)[C@@H](N)Cc1c[nH]cn1)[C@@H](C)O)[C@@H](C)O)C(=O)N[C@@H](CCC(=O)O)C(=O)N[C@@H](Cc1c[nH]c2ccccc12)C(=O)N[C@@H](CC(C)C)C(=O)N[C@@H](CCCCN)C(=O)N[C@@H](CCCNC(=N)N)C(=O)NCC(=O)NCC(=O)N1CCC[C@H]1C(=O)N[C@@H](CO)C(=O)N[C@@H](CO)C(=O)NCC(=O)N[C@@H](C)C(=O)N1CCC[C@H]1C(=O)N1CCC[C@H]1C(=O)N1CCC[C@H]1C(=O)N[C@@H](CO)C(N)=O` [compound 185], the concentration for a half-maximal effect (EC50) was 75.7 pM on human GLP-1 receptor (Table 8, comparison testing of position 14, read-out: EC50 hGLP-1R) and 262 pM on human glucagon receptor (Table 8, comparison testing of position 14, read-out: EC50 hGlucagon-R).

Consider `CCCCCCCCCCCCCCCC(=O)N[C@@H](CCC(=O)N[C@@H](CCC(=O)NCCCC[C@H](NC(=O)[C@H](CCC(N)=O)NC(=O)[C@H](CCCCN)NC(=O)[C@H](CO)NC(=O)[C@H](CC(C)C)NC(=O)[C@H](CC(=O)O)NC(=O)[C@H](CO)NC(=O)[C@@H](NC(=O)[C@H](Cc1ccccc1)NC(=O)[C@@H](NC(=O)CNC(=O)[C@H](CCC(N)=O)NC(=O)C(C)(C)NC(=O)[C@@H](N)Cc1c[nH]cn1)[C@@H](C)O)[C@@H](C)O)C(=O)N[C@@H](CC(=O)O)C(=O)N[C@@H](CCC(=O)O)C(=O)N[C@@H](CCC(N)=O)C(=O)N[C@@H](CCCNC(=N)N)C(=O)N[C@@H](C)C(=O)N[C@@H](CCCCN)C(=O)N[C@@H](CCC(=O)O)C(=O)N[C@@H](Cc1ccccc1)C(=O)N[C@H](C(=O)N[C@@H](CCC(=O)O)C(=O)N[C@@H](Cc1c[nH]c2ccccc12)C(=O)N[C@@H](CC(C)C)C(=O)N[C@@H](CCCCN)C(=O)N[C@@H](CO)C(=O)NCC(=O)NCC(=O)N1CCC[C@H]1C(=O)N[C@@H](CO)C(=O)N[C@@H](CO)C(=O)NCC(=O)N[C@@H](C)C(=O)N1CCC[C@H]1C(=O)N1CCC[C@H]1C(=O)N1CCC[C@H]1C(=O)N[C@@H](CO)C(N)=O)[C@@H](C)CC)C(=O)O)C(=O)O` [compound 207], for which the EC50 on human GLP-1 receptor (setting [1]) was determined as 1.1 pM; at human glucagon receptor (setting [2]), 1.2 pM.

With `CCCCCCCCCCCCCCCC(=O)N[C@@H](CCC(=O)NCCCC[C@H](NC(=O)[C@H](CCC(N)=O)NC(=O)[C@H](CCCCN)NC(=O)[C@H](CO)NC(=O)[C@H](CC(C)C)NC(=O)[C@H](CC(=O)O)NC(=O)[C@H](CO)NC(=O)[C@@H](NC(=O)[C@H](Cc1ccccc1)NC(=O)[C@@H](NC(=O)CNC(=O)[C@H](CCC(N)=O)NC(=O)[C@@H](CO)NC(=O)[C@@H](N)Cc1c[nH]cn1)[C@@H](C)O)[C@@H](C)O)C(=O)N[C@@H](CCC(=O)O)C(=O)N[C@@H](CO)C(=O)N[C@@H](CCC(=O)O)C(=O)N[C@@H](C)C(=O)N[C@@H](C)C(=O)N[C@@H](CCC(N)=O)C(=O)N[C@@H](CC(C)C)C(=O)N[C@@H](Cc1ccccc1)C(=O)N[C@H](C(=O)N[C@@H](CCC(=O)O)C(=O)N[C@@H](Cc1c[nH]c2ccccc12)C(=O)N[C@@H](CC(C)C)C(=O)N[C@@H](CCCCN)C(=O)N[C@@H](C)C(=O)NCC(=O)NCC(=O)N1CCC[C@H]1C(=O)N[C@@H](CO)C(=O)N[C@@H](CO)C(=O)NCC(=O)N[C@@H](C)C(=O)N1CCC[C@H]1C(=O)N1CCC[C@H]1C(=O)N1CCC[C@H]1C(=O)N[C@@H](CO)C(N)=O)[C@@H](C)CC)C(=O)O` [compound 21], the EC50 at human GLP-1 receptor (setting [1]) worked out at 3.8 pM; on human glucagon receptor (setting [2]), 144 pM.

For the molecule `CC[C@H](C)[C@H](NC(=O)[C@H](Cc1ccccc1)NC(=O)[C@H](CC(=O)O)NC(=O)[C@H](CCC(N)=O)NC(=O)[C@H](C)NC(=O)[C@H](CCCNC(=N)N)NC(=O)[C@H](CCCNC(=N)N)NC(=O)[C@H](CO)NC(=O)[C@H](CC(=O)O)NC(=O)[C@H](CCCCNC(=O)CC[C@H](NC(=O)CCC(=O)Oc1c(C)c(C)c2c(c1C)CC[C@@](C)(CCC[C@H](C)CCC[C@H](C)CCCC(C)C)O2)C(=O)O)NC(=O)[C@H](CCC(N)=O)NC(=O)[C@H](CCCCN)NC(=O)[C@H](CO)NC(=O)[C@H](CC(C)C)NC(=O)[C@H](CC(=O)O)NC(=O)[C@H](CO)NC(=O)[C@@H](NC(=O)[C@H](Cc1ccccc1)NC(=O)[C@@H](NC(=O)CNC(=O)[C@H](CCC(N)=O)NC(=O)[C@@H](CO)NC(=O)[C@@H](N)Cc1c[nH]cn1)[C@@H](C)O)[C@@H](C)O)C(=O)N[C@@H](CCC(=O)O)C(=O)N[C@@H](Cc1c[nH]c2ccccc12)C(=O)N[C@@H](CC(C)C)C(=O)N[C@@H](CCCCN)C(=O)N[C@@H](CC(N)=O)C(=O)NCC(=O)NCC(=O)N1CCC[C@H]1C(=O)N[C@@H](CO)C(=O)N[C@@H](CO)C(=O)NCC(=O)N[C@@H](C)C(=O)N1CCC[C@H]1C(=O)N1CCC[C@H]1C(=O)N1CCC[C@H]1C(=O)N[C@@H](CO)C(N)=O` [compound 89], the EC50 at human GLP-1 receptor (EC50 hGLP-1R, Table 5, cAMP, HEK-293) was 35.6 pM; on human glucagon receptor (EC50 hGlucagon-R, Table 5, cAMP, HEK-293), 13.7 pM.

For the molecule `CCCCCCCCCCCCCCCC(=O)N[C@@H](CCC(=O)NCCCC[C@H](NC(=O)[C@H](CCC(N)=O)NC(=O)[C@H](CCCCN)NC(=O)[C@H](CO)NC(=O)[C@H](CC(C)C)NC(=O)[C@H](CC(=O)O)NC(=O)[C@H](CO)NC(=O)[C@@H](NC(=O)[C@H](Cc1ccccc1)NC(=O)[C@@H](NC(=O)CNC(=O)[C@H](CCC(N)=O)NC(=O)[C@@H](CO)NC(=O)[C@@H](N)Cc1c[nH]cn1)[C@@H](C)O)[C@@H](C)O)C(=O)N[C@@H](CC(=O)O)C(=O)N[C@@H](CO)C(=O)N[C@@H](CCCNC(=N)N)C(=O)N[C@@H](CCCNC(=N)N)C(=O)N[C@@H](C)C(=O)N[C@@H](CCC(N)=O)C(=O)N[C@@H](CC(=O)O)C(=O)N[C@@H](Cc1ccccc1)C(=O)N[C@H](C(=O)N[C@@H](CCC(=O)O)C(=O)N[C@@H](Cc1c[nH]c2ccccc12)C(=O)N[C@@H](CC(C)C)C(=O)N[C@@H](CCCCN)C(=O)N[C@@H](CC(=O)O)C(=O)NCC(=O)NCC(=O)N1CCC[C@H]1C(=O)N[C@@H](CO)C(=O)N[C@@H](CO)C(=O)NCC(=O)N[C@@H](C)C(=O)N1CCC[C@H]1C(=O)N1CCC[C@H]1C(=O)N1CCC[C@H]1C(=O)N[C@@H](CO)C(N)=O)[C@@H](C)CC)C(=O)O` [compound 80], the EC50 at human GLP-1 receptor (setting [1]) came out at 5.8 pM; on human glucagon receptor (setting [2]) it was 1 pM.

In the case of `CCCCCCCCCCCCCCCC(=O)N[C@@H](CCC(=O)NCCCC[C@H](NC(=O)[C@H](CCC(N)=O)NC(=O)[C@H](CCCCN)NC(=O)[C@H](CO)NC(=O)[C@H](CC(C)C)NC(=O)[C@H](CC(=O)O)NC(=O)[C@H](CO)NC(=O)[C@@H](NC(=O)[C@H](Cc1ccccc1)NC(=O)[C@@H](NC(=O)CNC(=O)[C@H](CCC(N)=O)NC(=O)[C@@H](CO)NC(=O)[C@@H](N)Cc1c[nH]cn1)[C@@H](C)O)[C@@H](C)O)C(=O)N[C@@H](CCC(=O)O)C(=O)N[C@@H](CO)C(=O)N[C@@H](CCCNC(=N)N)C(=O)N[C@@H](CCCNC(=N)N)C(=O)N[C@@H](C)C(=O)N[C@@H](CCC(N)=O)C(=O)N[C@@H](CC(C)C)C(=O)N[C@@H](Cc1ccccc1)C(=O)N[C@H](C(=O)N[C@@H](CCC(=O)O)C(=O)N[C@@H](Cc1c[nH]c2ccccc12)C(=O)N[C@@H](CC(C)C)C(=O)N[C@@H](CCCCN)C(=O)N[C@@H](C)C(=O)NCC(=O)NCC(=O)N1CCC[C@H]1C(=O)N[C@@H](CO)C(=O)N[C@@H](CO)C(=O)NCC(=O)N[C@@H](C)C(=O)N1CCC[C@H]1C(=O)N1CCC[C@H]1C(=O)N1CCC[C@H]1C(=O)N[C@@H](CO)C(N)=O)[C@@H](C)CC)C(=O)O` [compound 68], the values for the EC50 at human GLP-1 receptor (setting [1]) and on human glucagon receptor (setting [2]) were 7.9 pM and 5.7 pM, respectively.
